Consider one substance from article PMC11174489, “In Vitro Activation of Human Adrenergic Receptors and Trace Amine-Associated Receptor 1 by Phenethylamine Analogues Present in Food Supplements” (Nutrients, 2024).

Assay [1] addresses T1, human adrenergic receptor (ADR) α1A (Homo sapiens, UniProt P35348).
T1 construct: host or cells: rat chem-1 cells
T1 sequence (P35348 1-466): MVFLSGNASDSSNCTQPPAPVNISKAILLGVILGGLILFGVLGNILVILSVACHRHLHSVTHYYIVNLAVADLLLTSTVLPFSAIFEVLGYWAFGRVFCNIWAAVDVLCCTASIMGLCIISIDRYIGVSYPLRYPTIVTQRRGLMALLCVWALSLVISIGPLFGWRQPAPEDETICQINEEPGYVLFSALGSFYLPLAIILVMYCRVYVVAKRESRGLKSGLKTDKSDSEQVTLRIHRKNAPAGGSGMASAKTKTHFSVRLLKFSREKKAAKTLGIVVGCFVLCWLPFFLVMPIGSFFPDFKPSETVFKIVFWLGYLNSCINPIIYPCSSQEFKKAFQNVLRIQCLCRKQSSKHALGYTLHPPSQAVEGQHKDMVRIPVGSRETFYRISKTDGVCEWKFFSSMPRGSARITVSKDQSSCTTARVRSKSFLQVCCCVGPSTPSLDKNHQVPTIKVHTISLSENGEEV
The experiment in a line: ADRα1A activation, Ca2+ influx (Fluo-8) in overexpressing chem-1 cells. In kind it is cell-based.

In assay [2] the target is T2, human trace amine-associated receptor 1 (TAAR1) (Homo sapiens, UniProt Q96RJ0).
T2 construct: expressed in transfected cells
T2 sequence (Q96RJ0 1-339): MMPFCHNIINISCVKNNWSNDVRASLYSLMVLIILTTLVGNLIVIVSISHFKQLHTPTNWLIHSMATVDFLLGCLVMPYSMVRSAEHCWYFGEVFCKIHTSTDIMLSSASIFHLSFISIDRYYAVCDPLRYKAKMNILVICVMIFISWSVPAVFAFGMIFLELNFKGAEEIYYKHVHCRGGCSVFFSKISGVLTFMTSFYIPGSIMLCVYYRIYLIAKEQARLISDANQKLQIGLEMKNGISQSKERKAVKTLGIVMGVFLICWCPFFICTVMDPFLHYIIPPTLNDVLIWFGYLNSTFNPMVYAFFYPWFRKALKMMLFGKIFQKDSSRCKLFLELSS
The experiment in a line: TAAR1 activation, intracellular cAMP (ELISA) in HEK293T cells stably expressing human TAAR1. It counts as cell-based.

Some results are limits rather than exact numbers.

Broadly, the EC50 is the concentration needed to bring the measured effect to its halfway point. Higher therefore signals a less potent agent. Consider Methyltyramine, for which the “ADRα1A Emax” value in assay [1] (% of maximal signal obtained by adrenaline, average (95% CI)) is “-”. The EC50 in assay [1] (Ca2+ response, chem-1 cells, average (95% confidence interval), 7–9 experiments) is over 300 µM; in assay [2] (cAMP, HEK293T-hTAAR1 cells, 1 h exposure, average (95% confidence interval), 3–5 experiments), 23 µM. Besides, in assay [2] (% of maximal cAMP level obtained by phenethylamine, average (95% CI)), the “TAAR1 Emax” value was 83 (78–87) %.
